PubChem BioAssay AID651685 (The Scripps Research Institute Molecular Screening Center, 2012)
The source made the active and inactive calls. How the calls were made is not given here.

Amino acid sequences for entries named in this document (tags omitted).
UniProt P35372, whole entry, looked up: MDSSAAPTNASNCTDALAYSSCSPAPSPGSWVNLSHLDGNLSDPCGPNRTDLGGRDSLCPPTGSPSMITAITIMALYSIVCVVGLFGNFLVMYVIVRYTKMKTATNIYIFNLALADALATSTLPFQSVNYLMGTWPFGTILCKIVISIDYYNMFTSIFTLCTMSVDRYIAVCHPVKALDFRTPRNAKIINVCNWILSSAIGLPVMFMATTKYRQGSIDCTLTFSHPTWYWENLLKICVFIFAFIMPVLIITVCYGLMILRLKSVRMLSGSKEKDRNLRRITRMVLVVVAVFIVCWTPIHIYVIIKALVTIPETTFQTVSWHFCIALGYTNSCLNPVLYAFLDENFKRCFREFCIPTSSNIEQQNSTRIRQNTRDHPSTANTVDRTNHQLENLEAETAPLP

Target: Mu-type opioid receptor (Homo sapiens) (UniProt P35372)
Test: mu-delta opioid heterodimer formation enhancers – cell-based, luminescence, dose response, late-stage follow-up (AID 651685)
Settings: cells, OPRM1-OPRD1 heterodimerization, luminescence complementation

Q: With `CCOc1ccc(CN2CCC(Nc3cccc4ccccc34)CC2)cc1C#N` as the molecule, how does the EC50 read?
A: The EC50 was inactive: > 40 µM.
